Ab-14 light chain CDR variants: yeast mating affinities

Data: MIT Lincoln Laboratory AlphaSeq set, Engelhart et al. 2022, doi:10.1038/s41597-022-01779-4, as distributed in FLAb.

All variants were tested on one target, the spike HR2 peptide PDVDLGDISGINAS (SARS-CoV-2).

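Phage display of a naive human antibody library on the peptide gave the parent. The library (AAYL50) carries one to three amino acid substitutions per variant, with no insertions or deletions. The assay is AlphaSeq: two haploid yeast populations carry antibody and antigen on their surface. Mating (16 h, 30 °C) was followed by selection of diploids and sequencing of their barcodes. Each replicate has its own calibration line, from reference interactions of the BCL2 family. Each pool was mated in three replicate cultures.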

Ab-14 is the parent antibody, in scFv form: VH, then a (GGGGS)3 linker, then VL. The heavy chain is unchanged in all variants.
VH: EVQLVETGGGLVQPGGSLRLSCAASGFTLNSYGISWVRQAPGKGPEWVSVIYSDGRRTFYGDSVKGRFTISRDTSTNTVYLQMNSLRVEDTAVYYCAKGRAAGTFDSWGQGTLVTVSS
VL: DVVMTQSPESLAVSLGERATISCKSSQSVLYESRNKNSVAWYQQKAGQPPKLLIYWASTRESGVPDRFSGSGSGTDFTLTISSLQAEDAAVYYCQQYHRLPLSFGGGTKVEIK

Changes read parent residue, position, new residue, counted from the first residue of the VL shown. This list gathers variants with a substitution at R99 (VL, numbered from residue 1). Kd is apparent (estimated from mating counts) and averaged on the log scale over replicates with a signal. Smaller is tighter. An entry "no signal" has no value in the source: the pair was not observed among the diploids in any replicate. This suggests poor binding but is not conclusive. Entries are sorted by rising average, undetected variants last. Empty control strains, which show no peptide, gave a signal in 18% of pairings with library AAYL50; the median was 15 µM and 95% of these signals were weaker than 970 nM. No background was subtracted. Also given: how often the same scFv was detected with the empty control strains. Parent in this assay: reference entry 4.4 nM, copy in this library 48 nM.

| changes | apparent Kd | replicates with signal | empty controls |
|---|---|---|---|
| V29G W56K R99D | 880 pM | 3 of 3 | 2 of 9 |
| W56E E61T R99G | 2.5 nM | 3 of 3 | 1 of 9 |
| W56A T59F R99Y | 3.6 nM | 3 of 3 | 0 of 9 |
| W56S H98D R99I | 4.2 nM | 3 of 3 | 1 of 9 |
| R99Q | 6.4 nM | 3 of 3 | 1 of 9 |
| V39I S58P R99D | 11 nM | 3 of 3 | 0 of 9 |
| R99M | 12 nM | 3 of 3 | 0 of 9 |
| Q27A R99K | 13 nM | 3 of 3 | 3 of 9 |
| Q27Y Y31M R99C | 13 nM | 3 of 3 | 3 of 9 |
| S62T R99Q | 24 nM | 3 of 3 | 1 of 9 |
| N37G A57V R99H | 25 nM | 3 of 3 | 2 of 9 |
| N35H K36Y R99I | 27 nM | 3 of 3 | 0 of 9 |
| L30M S58H R99A | 30 nM | 3 of 3 | 1 of 9 |
| T59W Q95I R99A | 40 nM | 3 of 3 | 1 of 9 |
| Y31K S58I R99C | 44 nM | 3 of 3 | 1 of 9 |
| Q95R R99Y | 52 nM | 3 of 3 | 0 of 9 |
| S26R Q27S R99I | 58 nM | 3 of 3 | 1 of 9 |
| Y31N R60L R99C | 67 nM | 3 of 3 | 3 of 9 |
| N35F S38N R99T | 140 nM | 3 of 3 | 1 of 9 |
| Y31D V39F R99I | 220 nM | 3 of 3 | 2 of 9 |
| L30E R99H | 270 nM | 3 of 3 | 3 of 9 |
| R34Q R99I S103H | 290 nM | 3 of 3 | 0 of 9 |
| Y31C R99G P101I | 550 nM | 3 of 3 | 3 of 9 |
| R99A L102Q S103G | 660 nM | 3 of 3 | 0 of 9 |
| K24D V29G R99I | 970 nM | 2 of 3 | 0 of 9 |
| S33Q R99D L100A | 2.4 µM | 1 of 3 | 2 of 9 |
| E32Y K36S R99W | 3.0 µM | 2 of 3 | 0 of 9 |
| V39K Q95E R99G | 3.2 µM | 2 of 3 | 2 of 9 |
| K36T A57G R99I | 3.7 µM | 3 of 3 | 2 of 9 |
| S33Y N35Q R99A | 4.3 µM | 2 of 3 | 1 of 9 |
| V29P W56V R99D | 5.3 µM | 1 of 3 | 1 of 9 |
| Y31D R99W L100A | 5.6 µM | 1 of 3 | 3 of 9 |
| R99Y L100N P101A | 6.7 µM | 1 of 3 | 1 of 9 |
| A40F R99G L100C | 11 µM | 2 of 3 | 3 of 9 |
| A40C R99M L102R | 17 µM | 2 of 3 | 4 of 9 |
| S26T Y97D R99A | 22 µM | 2 of 3 | 5 of 9 |
| S62Q R99Y L100H | 28 µM | 3 of 3 | 3 of 9 |
| R34S R99I | 37 µM | 1 of 3 | 2 of 9 |
| E61R R99K L102W | no signal | 0 of 3 | 0 of 9 |
| S26K T59E R99F | no signal | 0 of 3 | 1 of 9 |
| A40T Q96S R99G | no signal | 0 of 3 | 1 of 9 |
| A40F W56V R99H | no signal | 0 of 3 | 0 of 9 |
| E32R S62G R99T | no signal | 0 of 3 | 0 of 9 |
| Y31A Q96Y R99Q | no signal | 0 of 3 | 0 of 9 |
| E32V R99W L100Q | no signal | 0 of 3 | 0 of 9 |
| Q95N Q96H R99V | no signal | 0 of 3 | 4 of 9 |
| S28L R99W L102I | no signal | 0 of 3 | 2 of 9 |
| E61A Y97W R99Q | no signal | 0 of 3 | 0 of 9 |
| S38L T59F R99N | no signal | 0 of 3 | 1 of 9 |
| A40D T59R R99A | no signal | 0 of 3 | 1 of 9 |

The first 6 variants above that were never detected:

| changes | apparent Kd | replicates with signal | empty controls |
|---|---|---|---|
| E61R R99K L102W | no signal | 0 of 3 | 0 of 9 |
| S26K T59E R99F | no signal | 0 of 3 | 1 of 9 |
| A40T Q96S R99G | no signal | 0 of 3 | 1 of 9 |
| A40F W56V R99H | no signal | 0 of 3 | 0 of 9 |
| E32R S62G R99T | no signal | 0 of 3 | 0 of 9 |
| Y31A Q96Y R99Q | no signal | 0 of 3 | 0 of 9 |